From paper PMC6745035, “Novel tetrahydroacridine derivatives with iodobenzoic moieties induce G0/G1 cell cycle arrest and apoptosis in A549 non-small lung cancer and HT-29 colorectal cancer cells” (Molecular and Cellular Biochemistry, 2019)

Key:
SH-SY5Y cells = experiment: Cytoprotection against H2O2 (100 µM), MTT
supercoiled pUC19 DNA = conditions: 100 µM, IC50 of A549, IC50 of HT-29; human Topoisomerase I

SMILES | Cytoprotection against H2O2 (SH-SY5Y cells; 6.79 µM) | Cytoprotection against H2O2 (SH-SY5Y cells; 13.58 µM) | Intercalation: supercoiled pUC19 DNA band (in words) (supercoiled pUC19 DNA)
O=C(NCCCCNc1c2c(nc3ccccc13)CCCC2)c1ccccc1I [Compound 1c] | 89.47% | 28.45% | best intercalative potential at concentrations of 100 µM and 59.12 µM
O=C(NCCCCNc1c2c(nc3ccccc13)CCCC2)c1ccc(I)cc1 [Compound 1i] |  |  | did not have any bands at supercoiled level
